Measured values from PMC7218274, “Application of human lymphoid cells for the evaluation of antivirals against human adenovirus type 19: Zalcitabine has superior activity compared to cidofovir” (Antiviral Chemistry & Chemotherapy, 2020).

Test system: HAdV-19
Assay: MTT-based antiviral assay, HAdV-19-infected MT-2 cells
Assay type: cell-based, Human adenovirus type 19
Protocol: MT-2 cells and A549 cells were mixed with HAdV-19, 2× 10^5 cells/mL with 10^4 TCID50/mL and 1× 10^5 cells/mL with 3 × 10^3 TCID50/mL, respectively, in plate wells in the presence or absence of various concentrations of the compounds (MOI: 0.035 for MT-2 cells and 0.021 for A549). The plates were incubated for five days. At the end of the incubation period, CPE was determined using the MTT assay, as described previously.[11],[12] Thus, 25 µl of the MTT solution (7.5 mg/ml) in phosphate-buffered saline (Wako, Japan) was added to each well of the plate. Then, the plate was incubated at 37°C for 2 h. After incubation, 150 µl of medium was removed with care in order not to draw cells. To solubilize the formazan crystals and neutralize the viral infectivity, 100 μl of acidified isopropanol (4 ml concentrated HCl per 1 l of isopropanol) containing 10% (v/v) Triton X-100 was added to each well. Formazan crystals were completely solubilized by pipetting up and down, the absorbance at 560 nm of the wells was read by microplate reader (GloMax, Promega, Japan). […] The cytotoxicity of each compound was measured in parallel using the MTT assay. The 50% cytotoxicity concentration (CC50) was defined as the drug concentration that reduces cell viability by 50%.

## Cc1cn([C@H]2C[C@H](F)[C@@H](CO)O2)c(=O)[nH]c1=O [FdT, 3′-deoxy-3′-fluorothymidine]
  SI (selectivity index, ratio of CC50 and EC50): 20
